The target of this assay is NLRP3 inflammasome (Homo sapiens (Human), UniProt Q96P20). Kind of assay: NLRP3 inflammasome inhibitory activity: inhibition of IL-1β production in THP1-Null cells (PMA, LPS, Nigericin). The conditions noted are these: Nigericin 7.5 μmol/L. How it is done:
The NLRP3 inflammasome inhibitory activity of test compounds were evaluated on the basis of the inhibitory activity of the IL-1β production in THP1-Null cells (Product Number: thp-null, InvivoGen). Cells were maintained for culture in RPMI-1640 media containing 10% (v/v) fetal bovine serum, 25 mmol/L HEPES, 100 U/mL penicillin, 100 μg/mL streptomycin, 100 μg/mL normocin, and 200 μg/mL hygromycin B (set at 37° C., 5% CO2/95% air).
Cells were suspended with media for assay containing 0.5 μmol/L PMA (RPMI-1640 media containing 10% (v/v) fetal bovine serum, 100 U/mL penicillin, and 100 μg/mL streptomycin), and the suspended cells were seeded on Corning (registered trademark) 384-well Flat Clear Bottom Black Polystyrene TC-treated Microplates (25,000 cells/25 μL/well), followed by incubation (set at 37° C., 5% CO2/95% air) overnight. […]
The amount of IL-1β in the culture supernatant was quantitated with AlphaLISA (registered trademark) Human IL-1β Detection Kit (Product Number: AL220C, Perkin Elmer). Fluorescence intensity was measured with a microplate reader EnSpier (Model number: 2300-00J, Perkin Elmer) or EnSight (Model number: HH34000000, Perkin Elmer) according to procedure manuals attached thereto. Inhibition rates of the test compound-setting wells were calculated on the basis of 100% for the blank-setting wells and 0% for the control-setting wells. […]

Amino acid sequences for entries named in this document (tags omitted).
UniProt Q96P20, whole entry: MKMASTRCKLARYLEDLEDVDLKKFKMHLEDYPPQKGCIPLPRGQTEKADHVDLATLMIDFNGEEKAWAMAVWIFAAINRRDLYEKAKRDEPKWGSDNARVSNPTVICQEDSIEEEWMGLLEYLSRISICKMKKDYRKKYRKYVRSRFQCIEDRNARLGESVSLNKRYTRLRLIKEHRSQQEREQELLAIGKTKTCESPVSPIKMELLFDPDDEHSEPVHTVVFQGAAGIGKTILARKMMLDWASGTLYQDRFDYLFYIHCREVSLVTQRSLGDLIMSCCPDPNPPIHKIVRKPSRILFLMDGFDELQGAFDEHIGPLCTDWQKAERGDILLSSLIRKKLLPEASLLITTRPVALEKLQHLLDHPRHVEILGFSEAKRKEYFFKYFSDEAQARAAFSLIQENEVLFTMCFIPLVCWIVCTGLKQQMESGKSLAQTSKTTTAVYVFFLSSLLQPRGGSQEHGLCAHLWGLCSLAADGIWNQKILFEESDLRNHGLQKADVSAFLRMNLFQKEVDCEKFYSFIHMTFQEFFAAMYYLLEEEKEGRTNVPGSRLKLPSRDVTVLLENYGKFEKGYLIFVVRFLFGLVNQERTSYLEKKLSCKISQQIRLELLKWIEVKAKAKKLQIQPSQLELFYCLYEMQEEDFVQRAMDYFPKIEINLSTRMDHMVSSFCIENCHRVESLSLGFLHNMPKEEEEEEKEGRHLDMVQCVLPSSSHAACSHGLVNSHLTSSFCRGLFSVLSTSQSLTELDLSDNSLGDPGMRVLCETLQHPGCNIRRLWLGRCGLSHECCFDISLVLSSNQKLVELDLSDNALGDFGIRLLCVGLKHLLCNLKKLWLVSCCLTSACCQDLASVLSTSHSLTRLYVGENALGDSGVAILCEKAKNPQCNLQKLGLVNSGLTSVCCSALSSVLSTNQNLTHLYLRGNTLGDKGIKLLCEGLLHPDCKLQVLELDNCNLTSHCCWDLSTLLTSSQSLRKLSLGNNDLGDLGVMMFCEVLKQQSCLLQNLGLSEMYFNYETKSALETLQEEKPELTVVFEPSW

From US20250114361A1, “PYRAZOLOPYRIMIDINE COMPOUND AND PHARMACEUTICAL USE THEREOF” (Japan Tobacco Inc., priority 2022, published 2025) come the findings set out here.

The term IC50 denotes the concentration needed to halve the response being measured. High values mean a need for much substance, low ones inhibition by little substance.

`Cc1cc(C(C)(F)F)cc(C)c1-n1cc2c(=O)[nH]c(-c3ncn(C)n3)nc2n1` displayed an IC50 of 490 nM.
